Data as given in US6881706B1, “Use of a quaternary ammonium glycoside surfactant as an adjuvant for fertilizers or pesticides” (Akzo Nobel N.V., priority 1999, dated 2005).

Experiment: Foam height measurements, Ross Miles procedure
Assay type: physicochemical
Conditions: 50° C., 0.05% (w/w) surfactant solution
Protocol: Foam height measurements were performed according to the standard Ross Miles procedure. […] The glucosidised products are compared to the corresponding unglucosidised quaternary ammonium compounds.

Which “Foam height (mm) after 5 min” value (after 5 minutes) does the source give for Tallowamine ethoxylate here?
The value was 5 mm.

What about the “Foam height (mm) after 0 min” value (immediately) of the same substance?
The value was 95 mm.
